From patent US20030032003A1, “IN VIVO SELECTION” (priority 2000, published 2003)

Tested on: Hprt +/+ wildtype 129/J mice
Test: Acute toxicity of 6TG, approximate lethal dose
[1] = Hprt +/+, 25 mg/kg single i.p., 14 days
[2] = Hprt +/+, 50 mg/kg single i.p., 14 days
[3] = Hprt +/+, 100 mg/kg single i.p., 14 days
[4] = Hprt +/+, 150 mg/kg single i.p., 14 days
[5] = Hprt +/+, 225 mg/kg single i.p., 14 days
[6] = Hprt +/+, 338 mg/kg single i.p., 14 days
[7] = Hprt +/+, 508 mg/kg single i.p., 14 days
[8] = Hprt +/+, 720 mg/kg single i.p., 14 days

In the case of `Nc1nc(S)c2[nH]cnc2n1` [6TG, 2-amino-6-merkaptopurine], the “body weight, percentage of the body weight before the experiment” value (“body weight, percentage” for short) [1] is reported as 93%, the survival [1] is reported as “surv (surv, animals survived the 14 days period)” and the “body weight, percentage” value [2] is reported as 65%. The survival [2] was 13 days, the “body weight, percentage” value [3] was 69% and the survival [3] was 10.5 days. For the same molecule, the “body weight, percentage” value [4] was 76%, the survival [4] was 8.5 days and the “body weight, percentage” value [5] was 80%. For the same molecule, the survival [5] was 7 days, the “body weight, percentage” value [6] was 88% and the survival [6] was 4 days. For the same molecule, the “body weight, percentage” value [7] was 85%, the survival [7] was 4 days and the “body weight, percentage” value [8] was 80%. The survival [8] was 4 days, the survival (mice treated with 10 times the approximate lethal dose (Table 6)) was 4 days and the “decrease in body weight” value (wild type mice, 25 mg/kg sublethal dose) was 7%. For the same molecule, the approximate lethal dose (wildtype mice, single i.p.) was 50 mg/kg.
